{
  "source": "patent US20250382258A1",
  "about": "“NAPHTHALENE-TYPE COMPOUND AND PREPARATION METHOD THEREFORE AND USE THEREFORE” (DALIAN INSTITUTE OF CHEMICAL PHYSICS, CHINESE ACADEMY OF …, priority 2022, published 2025)",
  "assay": "water solubility under acidic conditions",
  "type": "physicochemical",
  "data": [
    {"substance": "2,4-dibenzylamine-1-naphthol", "values": [
      {"measurement": "water solubility under acidic conditions", "value": "lower than 5 mM"}
    ]}
  ]
}
